This is a selection; strong and weak results do not stand in their true shares. Records with an inconclusive call do not appear. Calls of active or inactive are those of the source.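 The calls were made as follows: active = cell viability at or below a set limit in both duplicate runs, the limit being the all-compound median minus 4 SD (cut at about 23% in these data, passing the limit was not always enough); inconclusive = no clear call, values can overlap the other calls; inactive = the rest.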
Assay: viability of HCT116 without oncogenic beta-catenin – human colon tumor cells, pilot screen (AID 823);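 also: 0% = wells killed by 20 µM Hyamine and 100% = untreated DMSO cell wells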
Conditions: HCT116 beta-catenin knockout viability, CellTiter-Glo, 60 h; at 10 µM; hits give low values

For `COC(=O)c1cc2c(s1)N=C(c1ccccc1)N(C)P2(=O)N1CCOCC1` (stereo unspecified), which viability is on record?
Its viability is inactive: 93.1%.

Reference: PubChem BioAssay AID823 (SRMLSC, 2007)
